Here are results for 75 molecules from PubChem BioAssay AID652126 (The Scripps Research Institute Molecular Screening Center, 2013).

The list shows a part of the results, in another mix than the full data. Active and inactive are the calls of the source.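 How the source made its calls: active means activation above the mean over all tested compounds plus 3 SD (cut at about 0.9% in these data); inactive means the rest.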

The experiment concerns Nuclear hormone receptor DAF-12 (Strongyloides stercoralis). The experiment can be described thus: ssDAF-12 driven luciferase reporter activation – cell-based, luminescence, HEK293, GRIP1 co-expression, lit1-tk-luc, primary screen (AID 652126).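 Further: 0% = DMSO-only wells and 100% = 3 µM delta7-dafachronic acid wells.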 As to conditions: HEK293 ssDAF-12/GRIP1 lit1-tk-luc reporter, at 6.8 µM, active compounds read high, % of 3 µM dafachronic acid response.
Take `O=P(Nc1nc2ccccc2s1)(c1ccccc1)c1ccccc1`: the activation was inactive: 0.16%.

In the case of `O=P(Nc1nccs1)(c1ccccc1)c1ccccc1`, the activation was inactive: -1.25%.

With `CC(C)C(=O)NC(Sc1ccccc1)C(Cl)(Cl)Cl` (stereo not given), the activation was inactive: -0.88%.

On to `c1nnnn1CCn1cnnn1`, for which the activation is inactive: -1.33%.

Regarding `COC(=O)C1(C)COP(=O)(NCc2ccccc2)OC1` (stereo not given), the activation was inactive: -0.05%.

Take `N#C/C(=C\c1ccc(N(CCBr)CCBr)cc1)C(N)=O`: the activation was inactive: -1.19%.

Consider `CC(=O)c1ccc(N2CC2c2ccncc2)cc1` (stereo not given), for which the activation is inactive: -0.37%.

On to `C[C@@H]1C=CCP(=O)(Oc2ccccc2)O1` (stereo not given in full), for which the activation was inactive: -1.09%.

`C[C@H]1OP(=O)(Oc2ccccc2)C[C@@H]2O[C@@H]21` (stereo not given in full): the activation is inactive: -1.13%.

Regarding `Cc1ccccc1CN(C)C(=O)COC(=O)C(O)(c1ccccc1)c1ccccc1`, the activation was inactive: -0.11%.

`CC(=O)Nc1ccc(Oc2c([N+](=O)[O-])cc([N+](=O)[O-])cc2[N+](=O)[O-])cc1`: the activation is inactive: -1.84%.

Turning to `CC(=O)Nc1ccc([As](=O)(O)O)c(O)c1`, the activation was inactive: -1.36%.

For the molecule `CCOc1ccc(C2=NCC(CBr)S2)cc1` (stereo not given), the activation is inactive: -0.41%.

For the molecule `O=P1(Nc2nc3ccc(Cl)cc3s2)COc2ccccc2O1` (stereo not given), the activation is inactive: -0.43%.

Regarding `CCc1cc(O)c([N+](=O)[O-])c(C)c1[N+](=O)[O-]`, the activation is inactive: -0.2%.

Regarding `CC(C)(C)C(=O)NC(Sc1ccccc1)C(Cl)(Cl)Cl` (stereo not given), the activation was inactive: -1.72%.

On to `Cc1ccc(OP(=O)(Nc2ccccn2)Oc2ccc(C)cc2)cc1`, for which the activation was inactive: -0.96%.

In the case of `CC(=O)NC(SC(=S)N(CC(C)C)CC(C)C)C(Cl)(Cl)Cl` (stereo not given), the activation was inactive: -1%.

On to `COC(=O)c1cc2c(s1)N=C(c1ccccc1)N(C)P2(=O)N1CCOCC1` (stereo not given), for which the activation is inactive: -1.48%.

On to `CCC(=O)N1C2C3N(C(=O)CC)C1C1N(C(=O)CC)C(C(N1C(=O)CC)N3C(=O)CC)N2C(=O)CC`, for which the activation was inactive: -0.11%.

`O=C(OC1CN2CCC1CC2)c1ccccc1` (stereo not given): the activation was inactive: -1.4%.

Consider `CN(C)C(=O)Oc1noc2ccccc12`, for which the activation was inactive: -1.52%.

As for `O=c1c2cc([N+](=O)[O-])ccc2[nH]c2c([N+](=O)[O-])cc([N+](=O)[O-])cc12`, the activation was inactive: -1.34%.

On to `Cc1ccccc1OP(=O)(Nc1ccccn1)Oc1ccccc1C`, for which the activation was inactive: -1.6%.

On to `CC(NC(=O)COC(=O)C(O)(c1ccccc1)c1ccccc1)c1ccccc1` (stereo not given), for which the activation is inactive: -1.32%.

For the molecule `O=C(NC1CCS(=O)(=O)C1)NP(=S)(Oc1ccccc1)Oc1ccccc1` (stereo not given), the activation is inactive: -1.02%.

As to `CCNC(=S)/N=C(\N)N[N+](=O)[O-]`, the activation is inactive: -1.16%.

On to `Cc1ccc(NP(=O)(Oc2cccc(C)c2)Oc2cccc(C)c2)nc1`, for which the activation was inactive: -1.86%.

As for `c1ccc(-c2nn[nH]n2)c(-c2nn[nH]n2)c1`, the activation is inactive: -0.42%.

As for `O=P1(N(CCCl)CCCl)OCCC2CCCCN21` (stereo not given), the activation was inactive: -0.52%.

As for `CCN(N=Nc1nonc1N)c1nonc1N`, the activation is inactive: -1.56%.

As for `CN(C(=O)Cc1ccccc1)C1CC[C@@]2(CCCO2)C[C@@H]1N1CCCC1` (stereo not given in full), the activation is inactive: -1.1%.

Regarding `Nc1cccc2ccc([As](=O)(O)O)cc12`, the activation is inactive: -1.26%.

In the case of `CCCC1OP(N)(=O)OCC1CC` (stereo not given), the activation was inactive: -0.7%.

For the molecule `O=C(O)c1ccccc1[As](=O)(O)O`, the activation was inactive: -0.22%.

As for `CC(=O)Nc1ccc([As](=O)(O)O)cc1`, the activation was inactive: -1.23%.

Turning to `CN(C)P(=O)(N(C)C)n1c(Nc2ccccc2)nnc1-c1ccccc1`, the activation is inactive: -0.77%.

`O=P(Nc1nc2ccc(Cl)cc2s1)(c1ccccc1)c1ccccc1`: the activation is inactive: -1.08%.

Consider `CN(C(=O)Cc1ccc(Cl)c(Cl)c1)[C@H]1CCCC[C@@H]1N1CCCC1`, for which the activation was inactive: -1.09%.

As to `Cc1ccc(NP(=O)(Oc2ccccc2F)Oc2ccccc2F)nc1`, the activation is inactive: -0.34%.

In the case of `CCOP(=O)(Nc1ccccc1)OCC`, the activation is inactive: -1.08%.

For `Cc1cc(SC(NC(=O)c2ccc(F)cc2)C(Cl)(Cl)Cl)ncn1` (stereo not given), the activation is inactive: -1.48%.

Regarding `CCn1c(=O)n(C2CCN(CC3CCCCCCC3)C[C@H]2CO)c2ccccc21` (stereo not given in full), the activation is inactive: -1.55%.

For `CC(C)CC(=O)NC(Sc1ccc(Cl)cc1)C(Cl)(Cl)Cl` (stereo not given), the activation was inactive: -0.38%.

As for `Nc1cc(N)c2nonc2c1[N+](=O)[O-]`, the activation was inactive: -1.91%.

Consider `O=C(NC(Sc1ccncn1)C(Cl)(Cl)Cl)c1ccccc1` (stereo not given), for which the activation was inactive: -0.93%.

As to `Oc1ccccc1CNc1ccccn1`, the activation was inactive: -1.31%.

For `NC(=O)c1cc([N+](=O)[O-])cc([N+](=O)[O-])c1N`, the activation is inactive: -1.89%.

In the case of `Cc1ccc(N/C(=N/P(=O)(N2CCOCC2)N2CCOCC2)N2CCOCC2)cc1`, the activation was inactive: -0.66%.

For `CN(C(=O)Cc1ccc(Cl)c(Cl)c1)[C@H]1CCCC[C@H]1N1CCCC1`, the activation is inactive: -0.71%.

Take `Cc1ccc(OP(=O)(Nc2nccs2)Oc2ccc(C)cc2)cc1`: the activation is inactive: -0.79%.

`COc1ccccc1OP(=O)(Nc1ccc(C)cn1)Oc1ccccc1OC`: the activation was inactive: -0.71%.

On to `Clc1ccc(Cl)c(NC2=NCC(CBr)S2)c1` (stereo not given), for which the activation is inactive: -1.39%.

Consider `CN1CCCC(OC(=O)C(c2ccccc2)c2ccccc2)C1` (stereo not given), for which the activation is inactive: -0.86%.

Consider `C[N+]1=C2C=CC=CC=C2SC12C([N+](=O)[O-])=CC([N+](=O)[O-])=C[C-]2[N+](=O)[O-]` (stereo not given), for which the activation is inactive: -3.1%.

Take `Nc1ccc([As](=O)(O)c2ccc(N)cc2)cc1`: the activation was inactive: 0.05%.

For `CCN(/C(=N/P(=O)(N1CCOCC1)N1CCOCC1)N1CCOCC1)c1ccc(OC)cc1`, the activation is inactive: 0.26%.

Take `CN(C)C(=O)OCCc1n(C)cc[n+]1C`: the activation was inactive: -0.99%.

Regarding `CC(C)=N/N=C(\N)N[N+](=O)[O-]`, the activation was inactive: -0.82%.

In the case of `CC(C)c1nc(Nc2ccccc2)n(P(=O)(N(C)C)N(C)C)n1`, the activation is inactive: -0.86%.

As to `c1cc(-c2nn[nH]n2)ccc1-c1nn[nH]n1`, the activation is inactive: -0.5%.

For the molecule `CC1CCN(C(=O)Oc2c(Cl)cc(Cl)c3cccnc23)CC1`, the activation was inactive: -0.72%.

For the molecule `COc1ccc(C2=NCC(CBr)S2)cc1` (stereo not given), the activation is inactive: -0.08%.

Take `CC(=O)N1C2C3N(C(C)=O)C1C1N(C(C)=O)C(C(N1C(C)=O)N3C(C)=O)N2C(C)=O`: the activation is inactive: -0.77%.

Consider `O=[N+]([O-])c1cccc2n[nH]nc12`, for which the activation is inactive: -0.31%.

Regarding `O=[N+]([O-])c1cc([N+](=O)[O-])c(CCNc2ccccc2)c([N+](=O)[O-])c1`, the activation was inactive: -1.69%.

With `CCc1nc2c(n1)c1c(non1O)c1c2no[n+]1[O-]`, the activation is inactive: -1.6%.

For `Cc1ccc(NP(=O)(Oc2ccccc2)Oc2ccccc2)nc1`, the activation was inactive: -1.74%.

As to `CC(C)(C)C(=O)NC(Sc1ccncn1)C(Cl)(Cl)Cl` (stereo not given), the activation was inactive: -0.71%.

`O=[N+]([O-])c1ncn(CCn2ncnc2[N+](=O)[O-])n1`: the activation is inactive: -1.32%.

In the case of `O=[N+]([O-])c1cccc(NC2=NCC(CBr)S2)c1` (stereo not given), the activation is inactive: -1.3%.

For `COC(=O)C1(C)COP(=O)(Nc2ccccc2)OC1` (stereo not given), the activation was inactive: -0.35%.

For `O=C(O)CNc1ccc([As](=O)(O)O)cc1`, the activation is inactive: -0.78%.

For the molecule `O=P1(N(CCCl)CCCl)OCCCS1` (stereo not given), the activation is inactive: -1.03%.

As to `O=C(Nc1cc([As](=O)(O)O)ccc1O)c1ccccc1`, the activation is inactive: -0.51%.
